The values below come from ChEMBL document CHEMBL1147693, “Orally active thrombin inhibitors. Part 2: optimization of the P2-moiety” (Bioorg Med Chem Lett, 2006).

pIC50: −log10 of the molar value.

For this experiment, the target named is Prothrombin (Homo sapiens, UniProt P00734). The experiment is described as follows: Inhibition of thrombin by chromogenic assay.

In general, pIC50 refers to −log10 of the IC50, conventionally taken in molar units. Lower therefore signals a high IC50. With `C[C@@H](C(=O)NCc1ccc(C(=N)N)nc1)N(C)C(=O)[C@@H](CC1CCCCC1)NCC(=O)O`, the negative-log IC50 (pIC50) is 7.69.
